Measurements reported in patent US11046696B2, “Fused pyrimidine compound or salt thereof” (TAIHO PHARMACEUTICAL CO., LTD., priority 2016, dated 2021).

Amino acid sequences for entries named in this document (tags omitted). A change or cut given only in a name is not applied to a line headed by its entry.
UniProt P06239: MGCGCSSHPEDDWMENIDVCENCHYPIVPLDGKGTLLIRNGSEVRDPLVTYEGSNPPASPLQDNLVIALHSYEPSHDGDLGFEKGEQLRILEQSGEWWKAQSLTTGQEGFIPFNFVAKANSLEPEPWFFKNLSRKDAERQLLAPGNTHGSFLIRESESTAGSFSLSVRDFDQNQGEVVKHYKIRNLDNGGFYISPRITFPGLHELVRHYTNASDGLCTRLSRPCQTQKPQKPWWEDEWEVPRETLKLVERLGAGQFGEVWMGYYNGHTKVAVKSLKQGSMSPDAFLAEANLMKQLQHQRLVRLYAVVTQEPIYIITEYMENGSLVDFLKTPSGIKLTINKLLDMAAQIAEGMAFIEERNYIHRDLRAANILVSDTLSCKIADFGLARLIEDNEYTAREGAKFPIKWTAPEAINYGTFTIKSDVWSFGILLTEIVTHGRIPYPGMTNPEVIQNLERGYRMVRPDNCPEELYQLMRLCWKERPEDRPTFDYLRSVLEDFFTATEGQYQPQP

Tests used:
[1] = target: recombinant human SRC protein (Homo sapiens (Human), UniProt P12931); assay: SRC inhibitory activity measurement; type: biochemical; details: selectivity for RET inhibition over SRC
[2] = target: recombinant human LCK protein (Homo sapiens (Human), UniProt P06239); assay: LCK inhibitory activity measurement; type: biochemical; details: selectivity for RET inhibition over LCK

SMILES: Cc1ccc(-c2nn(C(C)(C)C)c3ncnc(N)c23)cc1
- SRC IC50 (nM)/RET IC50 (nM) [1]: 10
- LCK IC50 (nM)/RET IC50 (nM) [2]: 12
